Measurements: patent US20250179040A1, “HISTAMINE H3 RECEPTOR ANTAGONISTS AND THEIR PHARMACEUTICAL USES” (HANGZHOU BIO-SINCERITY PHARMA-TECH CO., LTD., priority 2022, published 2025)

Protein sequences, listed by entry. Tags and fused reporters are not part of them. Lines headed by an entry give the natural chain unless they say otherwise; changes in a name come on top.
UniProt Q12809: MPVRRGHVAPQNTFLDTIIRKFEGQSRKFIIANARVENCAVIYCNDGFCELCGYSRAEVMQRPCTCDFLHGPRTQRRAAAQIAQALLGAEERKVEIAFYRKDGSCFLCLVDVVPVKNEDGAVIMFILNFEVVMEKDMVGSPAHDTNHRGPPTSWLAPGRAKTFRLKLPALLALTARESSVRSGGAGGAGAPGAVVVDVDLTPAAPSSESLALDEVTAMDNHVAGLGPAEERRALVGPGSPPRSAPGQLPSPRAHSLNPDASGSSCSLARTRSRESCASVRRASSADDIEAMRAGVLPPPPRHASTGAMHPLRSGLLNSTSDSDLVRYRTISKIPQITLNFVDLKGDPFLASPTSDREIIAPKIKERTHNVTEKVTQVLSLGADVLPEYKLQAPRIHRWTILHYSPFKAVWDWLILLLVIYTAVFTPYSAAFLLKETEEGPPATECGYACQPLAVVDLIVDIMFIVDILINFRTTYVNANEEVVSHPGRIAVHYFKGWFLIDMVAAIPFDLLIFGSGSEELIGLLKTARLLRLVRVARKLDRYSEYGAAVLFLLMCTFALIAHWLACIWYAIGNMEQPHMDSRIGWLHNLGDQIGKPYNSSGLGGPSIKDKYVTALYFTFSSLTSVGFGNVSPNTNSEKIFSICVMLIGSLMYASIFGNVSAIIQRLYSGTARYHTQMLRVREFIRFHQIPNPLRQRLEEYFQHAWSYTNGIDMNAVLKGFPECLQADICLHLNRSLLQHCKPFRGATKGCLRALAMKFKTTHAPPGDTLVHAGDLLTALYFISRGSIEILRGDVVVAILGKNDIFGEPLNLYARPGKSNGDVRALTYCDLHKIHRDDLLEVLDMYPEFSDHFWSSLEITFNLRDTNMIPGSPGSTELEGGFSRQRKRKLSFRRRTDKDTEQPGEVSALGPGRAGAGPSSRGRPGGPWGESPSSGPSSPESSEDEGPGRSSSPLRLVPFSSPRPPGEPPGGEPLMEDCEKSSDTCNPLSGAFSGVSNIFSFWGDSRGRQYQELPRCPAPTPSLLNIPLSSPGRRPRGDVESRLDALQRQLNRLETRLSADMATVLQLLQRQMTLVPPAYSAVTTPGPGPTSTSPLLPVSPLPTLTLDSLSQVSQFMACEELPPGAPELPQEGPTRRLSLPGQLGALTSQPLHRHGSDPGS

Target: hERG channel (Homo sapiens, UniProt Q12809)
Assay: in vitro
Settings: Average inhibition rate (%) on hERG channel, 100 nM
Description: In cardiomyocytes, inhibition of the delayed rectifier potassium current (IKr) channel protein encoded by the human Ether-a-go-go Related Gene (hERG) is the most important mechanism by which drugs lead to prolongation of the QT interval. hERG is characterized by a specific molecular structure, which allows it to be inhibited by different structures, leading to severe arrhythmias. Statistically, 25-40% of lead compounds show varying degrees of hERG-related toxicity. Therefore, early evaluation of the effects of compounds on hERG is crucial in the drug development process.
The inhibition rate of compounds on hERG channels was examined by manual membrane clamp technique on HEK293 cell line which is stably expressing hERG ion channels.

Work on `COc1cc(N)c(Cl)cc1C(=O)NC1CCN(CCCOc2ccc(F)cc2)CC1OC` (stereo not shown) [Cisapride, reference compound] yielded an inhibition at 0.1 µM of 86.6%.
